# Laboratory results published in PubChem BioAssay AID736 (The Scripps Research Institute Molecular Screening Center, 2007).
# By UniProt entry, the sequences of proteins in these tests, tags left out.
# UniProt O95136, whole entry: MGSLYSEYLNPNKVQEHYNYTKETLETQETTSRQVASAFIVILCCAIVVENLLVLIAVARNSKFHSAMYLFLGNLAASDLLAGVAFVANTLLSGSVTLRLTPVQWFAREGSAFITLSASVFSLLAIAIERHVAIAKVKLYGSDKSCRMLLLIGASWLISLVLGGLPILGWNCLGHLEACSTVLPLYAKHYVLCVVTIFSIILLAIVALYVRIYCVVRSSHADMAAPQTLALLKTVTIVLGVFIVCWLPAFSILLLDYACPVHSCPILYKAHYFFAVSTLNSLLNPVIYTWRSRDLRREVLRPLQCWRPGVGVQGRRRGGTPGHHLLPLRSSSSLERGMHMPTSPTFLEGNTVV
# The entries are a selection whose mix differs from that of the whole data set. Calls of active or inactive are those of the source. Cut-off read from the data, not from the text of the source: active = inhibition above about 45%; inactive = the rest.
# Molecular target: Sphingosine 1-phosphate receptor 2 (Homo sapiens) (UniProt O95136)
# Test: human S1P2 receptor antagonists, primary screen, cell-based (AID 736);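 note: CRE beta-lactamase reporter cells expressing human S1P2 stimulated with S1P; 0% = agonist at EC80 alone and 100% = agonist plus reference antagonist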
# Conditions: cell-based S1P2 antagonist assay, at 5 µM, stronger effect = higher value
row,SMILES,inhibition
1,O=C(NCC1(N2CCOCC2)CCCCC1)c1cc(=O)[nH]c2ccccc12,inactive: 11.5%
2,N#CC1(Nc2ccccc2)CCN(CCc2ccccc2)CC1,inactive: 15.8%
3,CN1CCC(Nc2cccc(F)c2)CC1,inactive: 20.1%
4,O=C(OC1CN2CCC1CC2)C1c2ccccc2Oc2ccccc21 (stereo not given),inactive: 11.2%
5,O=C(NCC1(N2CCOCC2)CCCCC1)c1cc2ccccc2o1,inactive: 9.92%
6,COc1ccc(NC2CCN(CCc3ccccc3)CC2)c(OC)c1,inactive: 7.84%
7,CCC(CO)(C(=O)OC1CN2CCC1CC2)c1ccccc1 (stereo not given),inactive: 12%
8,CCOc1ncccc1C(=O)NCC1(N2CCOCC2)CCCCC1,inactive: -34.4%
9,N/C(=N\O)c1c(N)no[n+]1[O-],inactive: 10.4%
10,c1ccc(CN2CCC(Nc3ccccc3)CC2)cc1,inactive: 17.7%
